From patent US10005720B2, “Compounds useful for the treatment of metabolic disorders and synthesis of the same” (NORTH CAROLINA CENTRAL UNIVERSITY, priority 2013, dated 2018)

Experiments:
[1] = system: lipid loaded HepaRG and HepG2 cells; test: Lipid droplet clearance in lipid-loaded liver cells (LipitoxGreen, flow cytometry); type: cell-based, human
Description: Mice deficient in components necessary to form lipid droplets are resistant to fatty liver and obesity on high fat diets and also show increased lipolysis. The in vitro models of lipid droplet metabolism involve ‘lipid loading” cells with a mixture of fatty acids to establish a lipid loading capacity, and subsequent compound treatment to determine the rate of lipid clearance. We utilized this well-established assay using lipid loaded HepaRG (Life Technologies) and HepG2 cells to determine compound effects by staining neutral lipid droplets with HCS LipitoxGreen (Life Technologies) and quantitation using flow cytometry. Briefly, cells are loaded with 1:1 Oleate/Palmitate fatty acid-BSA conjugate for 24 hours in media; subsequently, cells are treated with compound for an additional 24 hours and then remaining lipid content is evaluated by flow cytometry relative to the ‘not loaded” positive control.

[2] = system: FGF21 and Car3 expression; test: Bioassay panel: FGF21 stimulation, CAR3 suppression, stimulation of lipolysis in liver cell lines and primary hepatocytes; type: cell-based
Description: Having discovered pronounced differences in FGF21 and Car3 expression in entire cohorts of treated animals (FIG. 3A western blot), we developed cell-based bioassays that recapitulated the in vivo effects. The three bioassays for use in this study are: qPCR quantitation of FGF21 levels in HepG2 cells (FIG. 3B—left), qPCR quantification of Car3 in primary rat hepatocytes (FIG. 3B-right) and lipid droplet clearance in HepaRG cells (FIG. 3C).
Once these bioassays were developed, we explored the effect of B127443 and 70 structural analogs on these endpoints with positive outcomes passing to in vivo screening in an iterative process. We have found these compounds to be predictive/correlative of in vivo efficacy with adequate bioavailability. The qPCR assay confirmed that FGF21 gene expression increases in both liver and HepG2 cells confirming that HepG2s are a reliable in vitro model for FGF21 SAR development of B127443 analogs. […] The effect of these 5 selected compounds on FGF21 expression levels is shown in FIG. 1/SAR table above with R-group substitutions indicated. Our current set of lead molecules has importantly eliminated the undesirable aryl nitro-group through bioisostere substitutions, while improving both in vitro and in vivo efficacy, thereby avoiding potential aryl nitro-group toxicity.

O=C(Nc1ccc([N+](=O)[O-])cc1Cl)c1cc(Cl)ccc1O [Example B-127443, Niclosamide] was tested, and the “lipolysis in lipid-loaded liver cells” value ([1]; 100 nM) was “stimulates lipolysis”, the “lipid content of lipid-loaded cells” value ([1]; 24 hours Oleate/Palmitate loading, then 24 hours compound, compared to untreated controls) was “significantly reduced lipid content; also recorded: reverses lipid-loaded cells to a normal lipid phenotype” and the “potency/activity in bioassays (FGF21 stimulation, CAR3 suppression, lipolysis)” value [2] was “most potent small molecule”.

“Also recorded” adds a separate entry of the source.
